Assay results reported in US9296716B2, “Androgen receptor ligands” (THE PROVOST, FELLOWS, FOUNDATION SCHOLARS, & THE OTHER …, priority 2011, dated 2016).

Amino acid sequences for entries named in this document (tags omitted). Residues count along the entry.
UniProt P10275, 669-900 limits assumed: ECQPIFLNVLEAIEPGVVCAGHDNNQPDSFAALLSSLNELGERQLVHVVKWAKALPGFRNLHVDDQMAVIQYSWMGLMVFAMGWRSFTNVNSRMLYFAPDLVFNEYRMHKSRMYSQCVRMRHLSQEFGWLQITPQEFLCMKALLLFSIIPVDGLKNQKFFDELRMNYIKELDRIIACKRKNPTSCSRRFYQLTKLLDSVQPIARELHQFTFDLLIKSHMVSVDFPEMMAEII

Target: AR-LBD wt (Homo sapiens, UniProt P10275)
Test: Lanthascreen TR-FRET AR coactivator (D11-FxxLF) assay, AR-LBD wt
Format: biochemical

CCCOc1ccc(/C=N/NC(=O)c2cc3c(ccc4ccccc43)o2)cc1 [MDG508]
IC50: 17.9 ± 6.9 µM
